Test results published in ChEMBL document CHEMBL3627709, “Discovery of a Novel, Potent Spirocyclic Series of γ-Secretase Inhibitors” (J Med Chem, 2015).

System: Rattus norvegicus
Experiment: Antialzheimer activity in Sprague-Dawley rat assessed as reduction of total amylod beta level in brain at 10 mg/kg, po after 3 hrs by immunoassay relative to vehicle-treated control
Design: scale not given: the % may be the effect or the level left

CP1(=O)OCC2(CCC[C@@]3(S(=O)(=O)c4ccc(Cl)cc4)c4c(F)ccc(F)c4OC[C@@H]23)CO1 (stereo partly specified)
Activity: 39%
